Data reported in PubChem BioAssay AID743446 (Broad Institute, 2014).
Only a part is listed here, and it is no random draw. Results with a measured potency or affinity are listed apart. The source made the active and inactive calls. No rule for the calls is given here.

Test: HEK293 cell cytotoxicity, dose response, cytotoxicity control, plate reader, cherry-picked samples (AID 743446)
Settings: at 26 µM, stronger effect = lower value

SMILES: COc1cccc(C(c2nnnn2C2CCCCC2)N2CCC(n3c(=O)[nH]c4ccccc43)CC2)c1OC (stereo unspecified)
- max activity: inactive: -57%
